These results are taken from patent publication US6995283B2, “Benzophenones as inhibitors of reverse transcriptase” (priority 2001, dated 2006).

The term Solubility denotes how much of the substance goes into solution per volume. Low readings indicate little dissolved substance, high ones much dissolved substance.

This data set in a line: Solubility. To be noted: water; Crystal Form 1. Type of data set: physicochemical. The protocol:
A stir bar was put in the vial. The vials were closed with caps and placed on stir plate. […] After equilibration, the samples were centrifuged. An accurate aliquot of clear solution was transferred to a HPLC vial by micropipette. The solubility was determined by HPLC with UV detector and against standard.

With “2-[4-chloro-2-(3-chloro-5-cyanobenzoyl)phenoxy]-N-{2-methyl-4-[(propionylamino)sulfonyl]phenyl}acetamide, Choline Salt, Form 1”, the Solubility was found to be 66 mg/mL.
